Assay results reported in article PMC10142028, “Influence of Molecular Structure and Physicochemical Properties of Immunosuppressive Drugs on Micelle Formulation Characteristics and Cutaneous Delivery” (Pharmaceutics, 2023).

System: Porcine ear skin

**Q.** How did the “Drug deposition in skin regions (comparison)” value turn out when `CO[C@H]1C[C@@H]2CC[C@@H](C)[C@@](O)(O2)C(=O)C(=O)N2CCCC[C@H]2C(=O)O[C@H]([C@H](C)C[C@@H]2CC[C@@H](O)[C@H](OC)C2)CC(=O)[C@H](C)/C=C(\C)[C@@H](O)[C@@H](OC)C(=O)[C@H](C)C[C@H](C)/C=C/C=C/C=C/1C` [SIR, sirolimus] was run?
**A.** Its value is “large percentage of skin deposition in the dermis”.
